The experiment deals with EGFR T790M L858R (Homo sapiens, UniProt P00533, L858R/T790M). The experiment can be described thus: biochemical. To be noted: EGFR(T790M/L858R) Ki (μM), 5 μM ATP, 30 min, room temperature; apparent Ki (Morrison) converted by Cheng-Prusoff, Km of ATP 1.3 μM.

Chains of the proteins cited; added tags and fusions are not shown. Residues count along the entry.
UniProt P00533, 25-1210 T790M/L858R limits assumed: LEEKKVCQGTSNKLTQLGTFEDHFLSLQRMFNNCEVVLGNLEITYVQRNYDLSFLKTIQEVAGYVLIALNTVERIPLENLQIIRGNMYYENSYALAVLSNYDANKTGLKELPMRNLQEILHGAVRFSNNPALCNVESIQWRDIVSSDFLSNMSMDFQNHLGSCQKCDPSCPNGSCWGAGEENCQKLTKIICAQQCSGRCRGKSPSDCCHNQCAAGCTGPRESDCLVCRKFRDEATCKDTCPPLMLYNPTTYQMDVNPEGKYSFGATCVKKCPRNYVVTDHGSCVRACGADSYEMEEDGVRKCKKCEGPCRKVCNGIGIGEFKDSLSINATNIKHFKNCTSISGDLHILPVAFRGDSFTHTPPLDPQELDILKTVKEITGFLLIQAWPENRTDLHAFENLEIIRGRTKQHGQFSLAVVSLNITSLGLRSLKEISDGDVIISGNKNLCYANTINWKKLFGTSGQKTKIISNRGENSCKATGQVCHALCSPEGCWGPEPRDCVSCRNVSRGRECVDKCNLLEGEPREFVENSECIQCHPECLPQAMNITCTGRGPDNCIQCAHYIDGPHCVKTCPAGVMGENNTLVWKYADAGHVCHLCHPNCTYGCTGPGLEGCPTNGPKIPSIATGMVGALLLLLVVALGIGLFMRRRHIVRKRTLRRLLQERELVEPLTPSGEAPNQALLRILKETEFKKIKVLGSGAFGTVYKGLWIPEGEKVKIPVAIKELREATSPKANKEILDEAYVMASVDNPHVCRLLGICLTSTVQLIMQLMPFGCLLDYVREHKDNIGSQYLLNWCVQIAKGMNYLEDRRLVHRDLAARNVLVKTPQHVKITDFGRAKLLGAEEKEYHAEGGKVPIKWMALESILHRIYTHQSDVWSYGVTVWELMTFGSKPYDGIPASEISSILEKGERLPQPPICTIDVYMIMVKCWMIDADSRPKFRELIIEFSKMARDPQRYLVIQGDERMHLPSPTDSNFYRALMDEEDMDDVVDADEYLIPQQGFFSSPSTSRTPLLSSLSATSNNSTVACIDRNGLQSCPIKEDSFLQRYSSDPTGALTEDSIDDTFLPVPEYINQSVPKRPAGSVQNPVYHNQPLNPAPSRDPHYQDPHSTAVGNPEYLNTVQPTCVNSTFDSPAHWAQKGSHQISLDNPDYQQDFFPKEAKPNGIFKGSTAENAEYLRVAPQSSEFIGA

Consider `Cc1nc2cnc(Nc3ccnc(N4CCC5(CC4)OCCO5)n3)cc2n1C(C)C` [Example 506, N-(2-(1,4-Dioxa-8-azaspiro[4.5]decan-8-yl)pyrimidin-4-yl)-1-isopropyl-2-methyl-1H-imidazo[4,5-c]pyridin-6-amine], for which the Ki was determined as 0.00978 µM.
In the case of `CC(C)n1c(CO)nc2cnc(Nc3ccnc(N4CCC(C(F)(F)F)CC4)n3)cc21` [Example 512, (1-Isopropyl-6-((2-(4-(trifluoromethyl)piperidin-1-yl)pyrimidin-4-yl)amino)-imidazo[4,5-c]pyridin-2-yl)methanol], the Ki came out at 0.0803 µM.
For `CCC1CCN(c2nccc(Nc3cc4c(cn3)nc(CO)n4C(C)C)n2)CC1` [Example 513, (6-((2-(4-Ethylpiperidin-1-yl)pyrimidin-4-yl)amino)-1-isopropyl-1H-imidazo[4,5-c]pyridin-2-yl)methanol], the Ki was found to be 0.149 µM.
As for `Cc1nc2cnc(Nc3ccnc(N4CCc5nn(C)cc5C4)n3)cc2n1C(C)C` [Example 514, (1-Isopropyl-2-methyl-1H-imidazo[4,5-c]pyridin-6-yl)[2-(2-methyl-2,4,6,7-tetrahydropyrazolo[4,3-c]pyridin-5-yl)-pyrimidin-4-yl]amine], the figure is 0.0726 µM; as for `COC1(CN(C)C)CCN(c2nccc(Nc3cc4c(cn3)nc(C)n4C(C)C)n2)CC1` [Example 515, [2-(4-Dimethylaminomethyl-4-methoxypiperidin-1-yl)pyrimidin-4-yl](1-isopropyl-2-methyl-1H-imidazo[4,5-c]pyridin-6-yl)amine], 0.464 µM.
Consider `COCC1(OC)CCN(c2nccc(Nc3cc4c(cn3)nc(C)n4C(C)C)n2)CC1` [Example 516, (1-Isopropyl-2-methyl-1H-imidazo[4,5-c]pyridin-6-yl)[2-(4-methoxy-4-methoxymethylpiperidin-1-yl)pyrimidin-4-yl]amine], for which the Ki was found to be 0.064 µM.
Next, `COC1(CO)CCN(c2nccc(Nc3cc4c(cn3)nc(C)n4C(C)C)n2)CC1` [Example 517, {1-[4-(1-Isopropyl-2-methyl-1H-imidazo[4,5-c]pyridin-6-ylamino)pyrimidin-2-yl]-4-methoxypiperidin-4-yl}methanol]: 0.0135 µM; `Cc1nc2cnc(Nc3ccnc(NCC(C)(C)CN)n3)cc2n1C(C)C` [Example 518, N^2-(3-Amino-2,2-dimethylpropyl)-N^4-(1-isopropyl-2-methyl-1H-imidazo[4,5-c]pyridin-6-yl)pyrimidine-2,4-diamine]: 0.243 µM.
For `Cc1nc2cnc(Nc3ccnc(NCC(C)(C)CO)n3)cc2n1C(C)C` [Example 519, 3-[4-(1-Isopropyl-2-methyl-1H-imidazo[4,5-c]pyridin-6-ylamino)pyrimidin-2-ylamino]-2,2-dimethylpropan-1-ol], the Ki turned out to be 0.191 µM.
Next, `COC1(CCO)CCN(c2nccc(Nc3cc4c(cn3)nc(C)n4C(C)C)n2)CC1` [Example 520, 2-{1-[4-(1-Isopropyl-2-methyl-1H-imidazo[4,5-c]pyridin-6-ylamino)pyrimidin-2-yl]-4-methoxypiperidin-4-yl}ethanol]: 0.0509 µM.
Next, `COC1(CCN(C)C)CCN(c2nccc(Nc3cc4c(cn3)nc(C)n4C(C)C)n2)CC1` [Example 521, {2-[4-(2-Dimethylaminoethyl)-4-methoxypiperidin-1-yl]pyrimidin-4-yl}-(1-isopropyl-2-methyl-1H-imidazo[4,5-c]pyridin-6-yl)amine]: 0.169 µM.
For the compound `COCC(C)(C)CNc1nccc(Nc2cc3c(cn2)nc(C)n3C(C)C)n1` [Example 522, N^4-(1-Isopropyl-2-mcthyl-1H-imidazo[4,5-c]pyridin-6-yl)-N^2-(3-methoxy-2,2-dimethylpropyl)pyrimidine-2,4-diamine], the Ki came out at 0.194 µM.
Take `Cc1nc2cnc(Nc3ccnc(NCC(C)(C)C#N)n3)cc2n1C(C)C` [Example 523, 3-[4-(1-Isopropyl-2-methyl-1H-imidazo[4,5-c]pyridin-6-ylamino)pyrimidin-2-ylamino]-2,2-dimethylpropionitrile]: the Ki came out at 0.287 µM.
As for `COC1CCN(c2nccc(Nc3cc4c(cn3)nc3n4C(C)(C)CO3)n2)CC1` [Example 532, N-(2-(4-methoxypiperidin-1-yl)pyrimidin-4-yl)-3,3-dimethyl-2,3-dihydrooxazolo[3′,2′:1,2]imidazo [4,5-c]pyridin-6-amine], the figure is 0.0515 µM; as for `COC1(CO)CCN(c2nccc(Nc3cc4c(cn3)nc3n4C(C)(C)CO3)n2)CC1` [Example 533, (1-(4-((3,3-dimethyl-2,3-dihydrooxazolo[3′,2′:1,2]imidazo [4,5-c]pyridin-6-yl)amino)pyrimidin-2-yl)-4-methoxypiperidin-4-yl)methanol], 0.0785 µM; as for `CC[C@H](C)n1c([C@@H](C)O)nc2cnc(Nc3ccnc(-c4cnn(S(=O)(=O)CC)c4)n3)cc21` [Example 535, (R)-1-{(S)-1-sec-Butyl-6-[2-(1-ethanesulfonyl-1H-pyrazol-4-yl)-pyrimidin-4-ylamino]-1H-imidazo[4,5-c]pyridin-2-yl}-ethanol], 0.00247 µM.
Next, `COCCOc1nc2cnc(Nc3ccnc(-c4cnn(S(=O)(=O)C5CC5)c4)n3)cc2n1C(C)C` [Example 536, [2-(1-Cyclopropanesulfonyl-1H-pyrazol-4-yl)-pyrimidin-4-yl]-[1-isopropyl-2-(2-methoxy-ethoxy)-1H-imidazo[4,5-c]pyridin-6-yl]amine]: 0.00646 µM.
In the case of `COCCNc1nc2cnc(Nc3ccnc(-c4cnn(S(=O)(=O)C5CC5)c4)n3)cc2n1C(C)C` [Example 537, N^6-[2-(1-cyclopropanesulfonyl-1H-pyrazol-4-yl)-pyrimidin-4-yl]-1-isopropyl-N^2-(2-methoxyethyl)-1H-imidazo[4,5-c]pyridine-2,6-diamine], the Ki is 0.00249 µM.
Next, `Cc1nc2cnc(Nc3ccnc(-c4cnn(S(=O)(=O)C5CC5)c4)n3)cc2n1CC1CCOCC1` [Example 539, [2-(1-Cyclopropanesulfonyl-1H-pyrazol-4-yl)-pyrimidin-4-yl]-[2-methyl-1-(tetrahydropyran-4-ylmethyl)-1H-imidazo[4,5-c]pyridin-6-yl]amine]: 0.0629 µM; `C[C@@H](O)c1nc2cnc(Nc3ccnc(-c4cnn(S(=O)(=O)C5CC5)c4)n3)cc2n1[C@H](C)C(F)(F)F` [Example 540, (R)-1-[(R)-6-[2-(1-Cyclopropanesulfonyl-1H-pyrazol-4-yl)pyrimidin-4-ylamino]-1-(2,2,2-trifluoro-1-methyl-ethyl)-1H-imidazo[4,5-c]pyridin-2-yl]ethanol]: 0.00149 µM.
Take `CC[C@@H](C)n1c([C@@H](C)O)nc2cnc(Nc3ccnc(-c4cnn(S(=O)(=O)C5CC5)c4)n3)cc21` [Example 541, (R)-1-{1-((R)-sec-Butyl)-6-[2-(1-cyclopropanesulfonyl-1H-pyrazol-4-yl)pyrimidin-4-ylamino]-1H-imidazo[4,5-c]pyridin-2-yl}ethanol]: the Ki amounted to 0.00217 µM.
Turning to `C[C@@H](O)c1nc2cnc(Nc3ccnc(N4CCC(O)C(F)C4)n3)cc2n1[C@H](C)C(F)(F)F` (stereo partly drawn) [Example 542, 3-Fluoro-1-{4-[2-((R)-1-hydroxyethyl)-1-((R)-2,2,2-trifluoro-1-methylethyl)-1H-imidazo[4,5-c]pyridin-6-ylamino]pyrimidin-2-yl}-piperidin-4-ol], the Ki was 0.0174 µM.
As for `Cc1nc2cnc(Nc3ccnc(N4CCN(C(C)(C)C(N)=O)CC4)n3)cc2n1C(C)C` [Example 544, 2-{4-[4-(1-Isopropyl-2-methyl-1H-imidazo[4,5-c]pyridin-6-ylamino)pyrimidin-2-yl]piperaziN-1-yl}isobutyramide], the figure is 0.787 µM; as for `Cc1nc2cnc(Nc3ccnc(N4CCC(S(C)(=O)=O)CC4)n3)cc2n1C(C)C` [Example 545, (1-Isopropyl-2-methyl-1H-imidazo[4,5-c]pyridin-6-yl)-[2-(4-methanesulfonylpiperidin-1-yl)pyrimidin-4-yl]amine], 0.0608 µM; as for `CSC1CCN(c2nccc(Nc3cc4c(cn3)nc(C)n4C(C)C)n2)CC1` [Example 546, (1-Isopropyl-2-methyl-1H-imidazo[4,5-c]pyridin-6-yl)-[2-(4-methylsulfanylpiperidin-1-yl)pyrimidin-4-yl]amine], 0.0239 µM.
Next, `Cc1nc2cnc(Nc3ccnc(N4CCC(S(N)(=O)=O)CC4)n3)cc2n1C(C)C` [Example 547, 1-[4-(1-Isopropyl-2-methyl-1H-imidazo[4,5-c]pyridin-6-ylamino)pyrimidin-2-yl]piperidine-4-sulfonic acid amide]: 0.108 µM; `Cc1nc2cnc(Nc3ccnc(N4CC(S(C)(=O)=O)C4)n3)cc2n1C(C)C` [Example 548, (1-Isopropyl-2-methyl-1H-imidazo[4,5-c]pyridin-6-yl)-[2-(3-methanesulfonylazetidin-1-yl)pyrimidin-4-yl]amine]: 0.347 µM.
Next, `Cc1nc2cnc(Nc3ccnc(N4CCC(OC(F)F)CC4)n3)cc2n1C(C)C` [Example 549, [2-(4-Difluoromethoxypiperidin-1-yl)pyrimidin-4-yl]-(1-isopropyl-2-methyl-1H-imidazo[4,5-c]pyridin-6-yl)amine]: 0.0347 µM; `Cc1nc2cnc(Nc3ccnc(N4C[C@H]5C[C@@H](O)C[C@H]5C4)n3)cc2n1C(C)C` [Example 550, (3aR,5R,6aS)-2-[4-(1-Isopropyl-2-methyl-1H-imidazo [4,5-c]pyridin-6-ylamino)pyrimidin-2-yl]octahydro-cyclopenta[c]pyrrol-5-ol]: 0.161 µM; `CO[C@@H]1C[C@@H]2CN(c3nccc(Nc4cc5c(cn4)nc(C)n5C(C)C)n3)C[C@@H]2C1` [Example 551, 1-Isopropyl-N-(2-((3aR,5r,6aS)-5-methoxyhexahydrocyclopenta [c]pyrrol-2(1H)-yl)pyrimidin-4-yl)-2-methyl-1H-imidazo[4,5-c]pyridin-6-amine]: 0.0979 µM.
As for `Cc1nc2cnc(Nc3ccnc(NCC4(C(N)=O)CC4)n3)cc2n1C(C)C` [Example 552, 1-{[4-(1-Isopropyl-2-methyl-1H-imidazo[4,5-c]pyridin-6-ylamino)pyrimidin-2-ylamino]methyl}cyclopropane carboxylic acid amide], the Ki came to 0.0343 µM.
